Reference: patent US20260159604A1, “USES OF NON-SMALL CELL LUNG CANCER TARGET ARID1A AND INHIBITOR THEREOF IN PREPARATION OF DRUG FOR TREATING LUNG CANCER” (THE FIRST AFFILIATED HOSPITAL OF BENGBU MEDICAL COLLEGE, priority 2021, published 2026)

Test system: KP and KPAfl/fl tumor-derived organoids
Experiment: Drug sensitivity of BET inhibitors on tumor-derived organoids
Type: cell-based, mouse
Protocol: Firstly, lung tumor cells of KP and KPAfl/fl mice were taken for in vitro organoid culture and expansion, and drug sensitivity experiments of five widely used BET inhibitors were conducted on tumor-derived organoids (as shown in FIG. 7 panel A).

CCNC(=O)C[C@@H]1N=C(c2ccc(Cl)cc2)c2cc(OC)ccc2-n2c(C)nnc21 [BET762, Molibresib]
number of organoids with increasing drug concentration (7th day, different drug concentrations): the number of organoids decreased with the increase of drug concentration | formation of tumor-derived organoids, KPAfl/fl versus KP (concentrations of 10 μm and 50 μm, 7th day): selectively impaired the formation of KPAfl/fl tumor-derived organoids | sensitivity of ARID1A-deficient lung adenocarcinoma cells to BETi compounds (summary statement, compared with other BETi): more sensitive
